Data taken from US5432164A, “C2,N^6 -disubstituted adenosine derivatives” (Novo Nordisk A/S, priority 1991, dated 1995).
pKi: −log10 of the molar value.

Chains of the proteins cited; added tags and fusions are not shown.
UniProt P30543, whole entry: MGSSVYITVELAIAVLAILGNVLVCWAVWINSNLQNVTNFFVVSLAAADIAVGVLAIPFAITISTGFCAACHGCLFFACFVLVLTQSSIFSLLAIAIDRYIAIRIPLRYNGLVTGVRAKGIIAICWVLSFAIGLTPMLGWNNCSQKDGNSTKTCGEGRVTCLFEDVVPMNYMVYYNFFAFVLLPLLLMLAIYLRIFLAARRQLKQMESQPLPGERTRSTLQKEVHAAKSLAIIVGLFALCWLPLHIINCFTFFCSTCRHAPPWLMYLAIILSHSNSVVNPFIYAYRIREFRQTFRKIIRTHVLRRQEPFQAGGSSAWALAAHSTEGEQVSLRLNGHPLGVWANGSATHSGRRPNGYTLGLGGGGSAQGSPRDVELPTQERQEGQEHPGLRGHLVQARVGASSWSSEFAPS

Biological target: T1, adenosine A2 receptor (Rattus norvegicus, UniProt P30543)
T1 construct: from tissue
Test: In vitro binding to adenosine A2 receptor, radioligand [3H]-CGS 21680

Q: `CC(Cc1ccccc1)Nc1ncnc2c1ncn2[C@@H]1O[C@H](CO)[C@@H](O)[C@H]1O` (stereo partly drawn) [L-PIA, N-(1-phenyl-2-propyl)adenosine, reference compound] was tested. Which pKi did it give?
A: 6.87
